Results as given in BindingDB's records for doi:10.1016/0014-2999(89)90363-4 (Novo Industri, 1989).

Amino acid sequences for entries named in this document (tags omitted).
UniProt P23977, whole entry: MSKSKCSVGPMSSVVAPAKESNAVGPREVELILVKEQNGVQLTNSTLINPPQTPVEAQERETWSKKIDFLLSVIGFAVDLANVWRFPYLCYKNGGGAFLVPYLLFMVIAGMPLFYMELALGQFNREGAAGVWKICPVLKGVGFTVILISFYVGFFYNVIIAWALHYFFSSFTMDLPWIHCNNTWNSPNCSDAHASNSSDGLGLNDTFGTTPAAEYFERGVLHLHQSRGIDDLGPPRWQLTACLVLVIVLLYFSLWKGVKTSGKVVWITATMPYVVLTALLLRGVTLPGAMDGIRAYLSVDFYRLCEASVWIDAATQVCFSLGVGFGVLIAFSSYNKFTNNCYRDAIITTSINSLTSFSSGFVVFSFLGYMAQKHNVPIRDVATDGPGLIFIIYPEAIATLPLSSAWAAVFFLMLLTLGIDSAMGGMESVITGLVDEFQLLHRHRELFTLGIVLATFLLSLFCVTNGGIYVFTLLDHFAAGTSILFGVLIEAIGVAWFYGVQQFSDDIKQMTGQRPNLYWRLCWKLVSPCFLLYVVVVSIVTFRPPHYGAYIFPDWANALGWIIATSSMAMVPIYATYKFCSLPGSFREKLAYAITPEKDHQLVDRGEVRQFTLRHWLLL
UniProt P31652, whole entry: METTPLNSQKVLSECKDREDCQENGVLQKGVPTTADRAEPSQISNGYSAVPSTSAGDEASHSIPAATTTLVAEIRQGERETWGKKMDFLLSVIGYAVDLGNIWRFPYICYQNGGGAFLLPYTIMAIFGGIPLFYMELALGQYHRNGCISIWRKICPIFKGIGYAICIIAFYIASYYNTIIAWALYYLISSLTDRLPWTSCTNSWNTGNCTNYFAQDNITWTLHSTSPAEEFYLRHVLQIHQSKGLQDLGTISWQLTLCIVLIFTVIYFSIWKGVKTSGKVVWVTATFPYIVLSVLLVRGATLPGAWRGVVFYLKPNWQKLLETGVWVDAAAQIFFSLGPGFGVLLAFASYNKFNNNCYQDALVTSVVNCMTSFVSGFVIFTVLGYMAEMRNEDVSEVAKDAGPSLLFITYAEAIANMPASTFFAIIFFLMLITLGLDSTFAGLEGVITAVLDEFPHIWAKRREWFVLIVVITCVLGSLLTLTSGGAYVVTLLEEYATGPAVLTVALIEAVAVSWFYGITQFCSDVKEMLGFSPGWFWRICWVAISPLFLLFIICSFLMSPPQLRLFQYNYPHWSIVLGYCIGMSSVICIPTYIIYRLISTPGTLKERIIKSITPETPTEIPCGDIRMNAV
UniProt P14842, whole entry: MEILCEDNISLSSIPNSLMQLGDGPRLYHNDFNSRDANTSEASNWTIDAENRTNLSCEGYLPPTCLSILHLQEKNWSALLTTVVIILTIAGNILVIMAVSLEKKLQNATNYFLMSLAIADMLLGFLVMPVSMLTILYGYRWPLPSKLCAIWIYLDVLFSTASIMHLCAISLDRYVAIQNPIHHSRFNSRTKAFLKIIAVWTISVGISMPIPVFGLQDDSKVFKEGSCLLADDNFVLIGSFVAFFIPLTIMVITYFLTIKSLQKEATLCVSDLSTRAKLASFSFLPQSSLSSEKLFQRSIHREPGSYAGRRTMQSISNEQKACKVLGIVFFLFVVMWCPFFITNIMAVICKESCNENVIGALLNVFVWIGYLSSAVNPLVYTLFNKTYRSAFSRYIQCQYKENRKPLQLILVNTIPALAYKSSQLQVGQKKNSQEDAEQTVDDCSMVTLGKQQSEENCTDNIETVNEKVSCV

Columns and labels:
[1] = molecular target: Sodium-dependent dopamine transporter (Rattus norvegicus, UniProt P23977)
[2] = molecular target: Norepinephrine transporter (Rattus norvegicus, UniProt Q9JIA2)
[3] = molecular target: Sodium-dependent serotonin transporter (Rattus norvegicus, UniProt P31652)
[4] = molecular target: 5-hydroxytryptamine receptor 2A (Rattus norvegicus, UniProt P14842)

CN[C@H]1C[C@H](c2ccc(Cl)c(Cl)c2)c2ccccc21 [CAS_96850-13-4]
Ki [1]: 11.9 nM | Ki [2]: 8.8 nM

COc1ccc2c(c1)CN(C)CC2c1ccc(Cl)c(Cl)c1 (centres undefined)
Ki [3]: 51 nM

CN(C)CCCC1(c2ccc(F)cc2)OCc2cc(C#N)ccc21 (centres undefined) [CITALOPRAM HYDROBROMIDE]
Ki [4]: 9.5 µM

Structures can show the parent of a compound that is named as a salt.
